Experimental data from PMC6273065, “Synthesis, Molecular Modelling and Biological Evaluation of Novel Heterodimeric, Multiple Ligands Targeting Cholinesterases and Amyloid Beta” (Molecules, 2016).

Conditions: PAMPA-BBB, 2 h at 37 °C, means of two replicates

For `CC(=O)[C@H]1CC[C@H]2[C@@H]3CCC4=CC(=O)CC[C@]4(C)[C@H]3CC[C@]12C` [Progesterone, reference compound], which “Log Pe” value is on record?
The value was “–3.8”.
